Values quoted from earlier work as cited in patent publication US20170262578A1, “SYSTEM, METHOD AND SOFTWARE FOR ANALYSIS OF INTRACELLULAR SIGNALING PATHWAY ACTIVATION USING TRANSCRIPTOMIC DATA” (PATHWAY PHARMACEUTICALS LTD, priority 2015, published 2017).

Tested on: Bevacizumab-Refractory Metastatic Renal Cell Carcinoma
Details: 30 from 61 participants

CCN(CC)CCNC(=O)c1c(C)[nH]c(/C=C2\C(=O)Nc3ccc(F)cc32)c1C [Sunitinib]
Serious adverse events: 49.18%
